Reference: PMC11619344 (Antimicrobial Agents and Chemotherapy, 2024)

What was measured:
Assay in all cases: IC50, nitrocefin hydrolysis, crude extract
Type in all cases: biochemical
[1] = target: T1, KPC-2 L169T (Klebsiella pneumoniae, UniProt Q9F663, L168T); conditions: carbapenemase phenotype, 10 min preincubation
T1 construct: made in house; host or cells: E. coli HB4 (porin-deficient), plasmid pUCP24

[2] = target: T2, KPC-2 L169A (Klebsiella pneumoniae, UniProt Q9F663, L168A); conditions: carbapenemase phenotype, 10 min preincubation
T2 construct: made in house; host or cells: E. coli HB4 (porin-deficient), plasmid pUCP24

[3] = target: T3, KPC-2 (Klebsiella pneumoniae, UniProt Q9F663)
T3 construct: made in house; host or cells: E. coli HB4 (porin-deficient), plasmid pUCP24

[4] = target: T4, KPC-3 (Klebsiella pneumoniae, UniProt Q9F663, H272Y); conditions: KPC-3, carbapenemase phenotype, 10 min preincubation
T4 construct: made in house; host or cells: E. coli HB4 (porin-deficient), plasmid pUCP24

[5] = target: T5, KPC-31 (KPC-3 D179Y) (Klebsiella pneumoniae, UniProt Q9F663, D178Y/H272Y); conditions: ESBL phenotype, 10 min preincubation
T5 construct: made in house; host or cells: E. coli HB4 (porin-deficient), plasmid pUCP24

[6] = target: T6, KPC-35 (KPC-2 L169P) (Klebsiella pneumoniae, UniProt Q9F663, L168P); conditions: ESBL phenotype, 10 min preincubation
T6 construct: made in house; host or cells: E. coli HB4 (porin-deficient), plasmid pUCP24

[7] = target: T7, KPC-3 D179N (Klebsiella pneumoniae, UniProt Q9F663, D178N/H272Y); conditions: ESBL phenotype, 10 min preincubation
T7 construct: made in house; host or cells: E. coli HB4 (porin-deficient), plasmid pUCP24

Q: With O=C(NC1CCNCC1)[C@@H]1CC[C@@H]2CN1C(=O)N2OS(=O)(=O)O [REL, relebactam] as the compound, how does the IC50 [1] read?
A: Its IC50 is 40 nM.

Q: What about the IC50 [2] of the same compound?
A: The IC50 was 100 nM.

Q: What about the IC50 [3] of the same compound?
A: The IC50 was 30 nM.

Q: What about the IC50 [4] of the same compound?
A: The IC50 was 70 nM.

Q: What about the IC50 [5] of the same compound?
A: Its IC50 is 30 nM.

Q: And the IC50 [6]?
A: The IC50 was 300 nM.

Q: And the IC50 [7]?
A: Its IC50 is 50 nM.
